Among the data in PubChem BioAssay AID485281 (National Center for Advancing Translational Sciences (NCATS), 2010) are activity change, negative = displacement values, retold here.

By UniProt entry, the sequences of proteins in these tests, tags left out. Residues count along the entry.
UniProt P02791, 2-175 limits assumed: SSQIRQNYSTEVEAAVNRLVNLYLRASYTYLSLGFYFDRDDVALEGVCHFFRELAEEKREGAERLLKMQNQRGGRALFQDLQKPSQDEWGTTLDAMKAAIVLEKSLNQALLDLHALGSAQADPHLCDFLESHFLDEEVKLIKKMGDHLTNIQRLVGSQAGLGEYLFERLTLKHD

This is a selection; strong and weak results do not stand in their true shares. Records with an inconclusive call do not appear. Some salts and complexes are drawn in separate pieces, as the source files them; their charges need not balance. Activity calls are given as the source filed them. Calls follow the shape of the dose curve; as a rule, active = well fitted inhibition curve with a large enough effect; inconclusive = small, poorly fitted or top-dose-only effect; inactive = no such curve, though single readings can be large or run the other way.
% is scaled to controls: 0 for no effect and ±100 for the full control effect.

The target in the assay is Ferritin light chain (Equus caballus) (UniProt P02791). Put plainly: qHTS Assay for Identification of Novel General Anesthetics. Also: nearly all actives have a fitted effect of over 20% in size. The note with it: apoferritin/1-aminoanthracene competitive binding, fluorescence; at 77.5 µM (top of the series). In general terms: qHTS replaces the single test concentration by a dilution series.
Regarding `CCN1CCC(Nc2cccc(F)c2)CC1`, the activity change, negative = displacement was inactive: -11.8%.

For the compound `CC(C)(C)c1ccc(C(=O)NCC2(N3CCOCC3)CCCCC2)cc1`, the activity change, negative = displacement is inactive: -8.21%.

For `CN(C)c1ccc(C(=O)NCC2(N3CCCCC3)CCCCC2)cc1`, the activity change, negative = displacement was inactive: -1.35%.

Take `Cc1ccccc1C(=O)NCC1(N(C)C)CCCCC1`: the activity change, negative = displacement is inactive: 5.4%. As for `COc1cc(OC)cc(C(=O)NCC2(N3CCCCC3)CCCCC2)c1`, the activity change, negative = displacement is inactive: 1.95%. As for `CN(C)C1(CNC(=O)c2ccc(C(C)(C)C)cc2)CCCCC1`, the figure is inactive: -2.9%. For `Fc1ccccc1NC1CCN(Cc2ccccc2)CC1`, the activity change, negative = displacement was inactive: -11.2%.

Turning to `CCC(CO)(C(=O)OC1CN2CCC1CC2)c1ccccc1` (stereo not drawn), the activity change, negative = displacement is inactive: -7.55%. As for `COc1cc(OC)cc(C(=O)NCC2(N3CCOCC3)CCCCC2)c1`, the figure is inactive: -1.56%; as for `COc1cc(C(=O)NCC2(N3CCOCC3)CCCCC2)cc(OC)c1OC`, inactive: 9.02%; as for `COc1cccc(C(=O)N(c2cc(C)cc(C)c2)C2CCN(C(=O)OC(C)(C)C)CC2)c1`, inactive: 2.6%. For `CCCOc1ccc(C)cc1CN(CCCl)CCCl` the value was inactive: 0.89%; for `CN1CCC(Nc2ccc(Cl)cc2)CC1`, inactive: -1.25%; for `CCOc1ncccc1C(=O)NCC1(N2CCOCC2)CCCCC1`, inactive: -1.95%. As to `CN1CCC(Nc2ccc(F)c(Cl)c2)CC1`, the activity change, negative = displacement is inactive: -13.3%. For `CCCOc1ccc(C(=O)NCC2(N(C)C)CCCCC2)cc1` the value was inactive: 0.985%; for `CC(C)(C)OC(=O)N1CCC(Nc2ccccc2)CC1`, inactive: -7.98%. In the case of `O=C(O)C1(Nc2ccccc2)CCN(Cc2ccccc2)CC1`, the activity change, negative = displacement was inactive: 3.98%. On to `N/C(=N\O)c1c(N)no[n+]1[O-]`, for which the activity change, negative = displacement was inactive: -9.94%. For `CCOC(=O)N1CCC(Nc2ccc(C)cc2)CC1` the value was inactive: -4.48%; for `O=C(OC1CN2CCC1CC2)C1c2ccccc2C=Cc2ccccc21` (stereo not drawn), inactive: -8.85%. As for `O=C(O)c1cccc(Nc2c([N+](=O)[O-])cc([N+](=O)[O-])cc2[N+](=O)[O-])c1`, the figure is inactive: 0.278%; as for `COc1ccc(C(=O)NCC2(N3CCOCC3)CCCCC2)cc1OC`, inactive: -1.32%; as for `c1ccc(CN2CCC(Nc3ccccc3)CC2)cc1`, inactive: -9.46%. As for `O=C(NCC1(N2CCOCC2)CCCCC1)c1ccccc1`, the figure is inactive: 13.2%; as for `CCCN1CCC(Nc2cc(OC)cc(OC)c2)CC1`, inactive: -6.64%. As for `CN(C)C1(CNC(=O)c2cccc(C#N)c2)CCCCC1`, the activity change, negative = displacement is inactive: 2.59%.

Take `O=C(NCC1(N2CCOCC2)CCCCC1)c1ccc([N+](=O)[O-])cc1`: the activity change, negative = displacement was inactive: -4.81%. Regarding `CC(C)(C)OC(=O)N1CCC(N(C(=O)c2ccccc2)c2ccc(Cl)cc2)CC1`, the activity change, negative = displacement is inactive: -19.2%. `N#Cc1ccc(C(=O)NCC2(N3CCCCC3)CCCCC2)cc1`: the activity change, negative = displacement was inactive: -1.65%. Turning to `O=C(NCC1(N2CCOCC2)CCCCC1)c1ccccc1[N+](=O)[O-]`, the activity change, negative = displacement was inactive: 11.6%. As for `CCOC(=O)C(CC)C1=NC(C)(C)Cc2ccccc21.O=[N+]([O-])c1cc([N+](=O)[O-])c(O)c([N+](=O)[O-])c1` (stereo not drawn), the activity change, negative = displacement was inactive: -14.6%.

With `CCCOc1cccc(C(=O)NCC2(N3CCOCC3)CCCCC2)c1`, the activity change, negative = displacement is inactive: -3.4%. As to `O=C(NCC1(N2CCCCC2)CCCCC1)c1cccc(C(F)(F)F)c1`, the activity change, negative = displacement is inactive: 0.458%.

`O=[N+]([O-])c1cc([N+](=O)[O-])c(NCC2CCS(=O)(=O)C2)c([N+](=O)[O-])c1` (stereo not drawn): the activity change, negative = displacement is inactive: -20.8%. For `CN1CCN(CCOC(=O)C(O)(c2ccccc2)c2ccccc2)CC1` the value was inactive: -7.96%; for `COc1ccc(NC2CCN(C(=O)OC(C)(C)C)CC2)cc1`, inactive: -16.1%; for `COc1cc(C(=O)NCC2(N3CCCCC3)CCCCC2)ccc1OC(F)F`, inactive: -13.6%.

With `O=C(NCC1(N2CCOCC2)CCCCC1)c1cc(=O)[nH]c2ccccc12`, the activity change, negative = displacement is inactive: -2.35%.

Turning to `O=C(NCC1(N2CCCCC2)CCCCC1)c1ccc(OC(F)F)cc1`, the activity change, negative = displacement was inactive: -0.0272%.

On to `O=C(NCC1(N2CCCCC2)CCCCC1)c1cccc([N+](=O)[O-])c1`, for which the activity change, negative = displacement was inactive: -6.44%.

Take `CCOc1ccc(C(=O)NCC2(N3CCOCC3)CCCCC2)cc1`: the activity change, negative = displacement was inactive: 6.34%. For `CCN1CCC(Nc2ccc(Cl)cc2)CC1` the value was inactive: -3.42%.

For the compound `N#CC1(Nc2ccccc2)CCN(CCc2ccccc2)CC1`, the activity change, negative = displacement is inactive: -9.43%. In the case of `COc1ccc2c(c1O)-c1c(O)c(OC)cc3c1[C@H](C2)[N+](C)(C)CC3.O=[N+]([O-])c1cc([N+](=O)[O-])c([O-])c([N+](=O)[O-])c1[O-]`, the activity change, negative = displacement was inactive: 1.76%. With `O=C(OC1CN2CCC1CC2)c1ccc([N+](=O)[O-])cc1` (stereo not drawn), the activity change, negative = displacement is inactive: 20%.

`CCCCOc1ccccc1C(=O)NCC1(N2CCOCC2)CCCCC1`: the activity change, negative = displacement was inactive: -7.73%. For `O=C(NCC1(N2CCOCC2)CCCCC1)c1ccccc1Br` the value was inactive: 13.3%; for `CCCOc1ccc(C(=O)NCC2(N(C)C)CCCCC2)cc1OC`, inactive: -5.59%.

Take `COc1ccc(CN(CCCl)CCCl)cc1Cl`: the activity change, negative = displacement is inactive: -3.63%. As for `O=[N+]([O-])c1cc([N+](=O)[O-])c(OC2CCCCC2O)c([N+](=O)[O-])c1` (stereo not drawn), the figure is inactive: -12%; as for `CN(C)c1cccc(C(=O)NCC2(N3CCCCC3)CCCCC2)c1`, inactive: 0.701%; as for `CC(C)c1ccc(NC2CCN(C(=O)OC(C)(C)C)CC2)cc1`, inactive: -11.3%. As for `COc1cc(OC)c(C(=O)NCC2(N(C)C)CCCCC2)cc1OC`, the figure is inactive: 8.76%; as for `O=C(NCC1(N2CCOCC2)CCCCC1)c1cc2ccccc2o1`, inactive: -9.86%; as for `Cc1cc(C)cc(N(C(=O)c2ccccc2)C2CCN(C(=O)OC(C)(C)C)CC2)c1`, inactive: -7.07%. As for `CCOC(=O)N1CCC(Nc2ccc(OC)cc2)CC1`, the figure is inactive: -0.94%.

For `N#CC1(Nc2ccccc2)CCN(Cc2ccccc2)CC1`, the activity change, negative = displacement is inactive: -10.3%. As for `O=C(OC1CN2CCC1CC2)C1c2ccccc2Oc2ccccc21` (stereo not drawn), the figure is inactive: -11.4%; as for `O=C(NCC1(N2CCCCC2)CCCCC1)c1ccc(=O)[nH]c1`, inactive: -6.92%.

Regarding `COc1ccc(C(=O)NCC2(N3CCCCC3)CCCCC2)cc1`, the activity change, negative = displacement is inactive: 3.21%. For `CC(C)(C)OC(=O)N1CCC(N(C(=O)c2ccccc2)c2ccc(F)cc2)CC1` the value was inactive: -1.69%; for `COc1ccc(C(=O)NCC2(N3CCCCC3)CCCCC2)c(OC)c1OC`, inactive: -5.46%; for `CSc1ccccc1C(=O)NCC1(N2CCCCC2)CCCCC1`, inactive: 1.52%.

On to `CCOC(=O)N1CCC(Nc2cccc(C)c2)CC1`, for which the activity change, negative = displacement was inactive: -7.39%. For `COc1cc(C(=O)NCC2(N(C)C)CCCCC2)ccc1OC(F)F`, the activity change, negative = displacement is inactive: -3.63%.

Take `Cc1ccc(OCC(C)C)c(CN(CCCl)CCCl)c1`: the activity change, negative = displacement is inactive: -2.84%. For the compound `CCOc1ccc(C)cc1CN(CCCl)CCCl`, the activity change, negative = displacement is inactive: -6.46%. For `O=C(NCC1(N2CCOCC2)CCCCC1)c1ccc(Cl)cc1` the value was inactive: 5.37%; for `O=C(NCC1(N2CCCCC2)CCCCC1)c1ccc(F)cc1`, inactive: -1.22%; for `COc1ccc(NC2CCN(CCc3ccccc3)CC2)c(OC)c1`, inactive: -11.4%. Take `CCOC(=O)N1CCC(Nc2ccc(F)cc2)CC1`: the activity change, negative = displacement was inactive: -4.51%. For `COc1ccccc1C(=O)NCC1(N2CCOCC2)CCCCC1` the value was inactive: 4.81%.
